Drawing on PubChem BioAssay AID1508609 (The Scripps Research Institute Molecular Screening Center, 2020), this text covers activation for two molecules.

Protein sequences, listed by entry. Tags and fused reporters are not part of them. Lines headed by an entry give the natural chain unless they say otherwise; changes in a name come on top.
UniProt Q8TDV0: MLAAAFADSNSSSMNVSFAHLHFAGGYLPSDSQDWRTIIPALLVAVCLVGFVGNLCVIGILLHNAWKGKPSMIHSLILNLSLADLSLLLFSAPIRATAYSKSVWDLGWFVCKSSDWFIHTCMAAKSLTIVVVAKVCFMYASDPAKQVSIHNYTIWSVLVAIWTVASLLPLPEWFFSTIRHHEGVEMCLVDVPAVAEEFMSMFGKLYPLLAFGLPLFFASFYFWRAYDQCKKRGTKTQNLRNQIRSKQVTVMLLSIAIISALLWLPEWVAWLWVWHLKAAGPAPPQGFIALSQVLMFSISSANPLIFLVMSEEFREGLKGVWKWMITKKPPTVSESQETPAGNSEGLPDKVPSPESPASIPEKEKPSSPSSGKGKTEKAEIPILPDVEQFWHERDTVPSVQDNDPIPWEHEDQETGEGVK

The structures appear in SMILES notation. The entries are a selection whose mix differs from that of the whole data set. Calls of active or inactive are those of the source.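 How the source made its calls: active means mean percent activation across replicates above the confirmation screen cutoff of 4.91%; inactive means the rest.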

The assay concerns the target G-protein coupled receptor 151 (Homo sapiens) (UniProt Q8TDV0). Description: GPR151 activators, triplicate retest, confirmation, cell-based, PathHunter beta-arrestin, luminescence (AID 1508609). The conditions noted are these: GPR151 PathHunter beta-arrestin cells, 90 min, at 11.2 µM, stronger effect = higher value, % of EA-reagent control over plate median.
With `Cc1cc(Br)c(Nc2c([N+](=O)[O-])cc([N+](=O)[O-])c3nonc23)cc1[N+](=O)[O-]`, the activation was inactive: -0.96%.

For `O=C(Nc1cccc(F)c1)N(Cc1cccnc1)C1CCN(CCc2cccs2)CC1`, the activation was inactive: -0.38%.
